Reference: US20210371526A1

Biological target: Her2 (human epidermal growth factor receptor 2) on tumor cells (human) (UniProt P04626)
Experiment: cell-based or functional assay

EC50 of activation of Jurkat T cells with NFAT RE luciferase reporter in the presence of target cells: 9.91 pM
Substance: Monoclonal antibody Herceptin (from Roche)
